Screen for blockers of NLRP3-driven cell death, PubChem AID 2061109 (Seoul National University).
Cells: mouse bone marrow macrophages; stimulus: LPS priming, then nigericin; dose: 5 µM; read-out: propidium iodide uptake by live imaging.
Inhibition in %: 0 = stimulated control, 100 = untreated cells; values below 0 were filed as 0. * marks the depositor's active call (above 70%). Part of the library is listed.

| smiles | inhibition [%] |
|---|---|
| Clc1ccc(C2(c3ccc(-c4cn[nH]c4)cc3)CCNCC2)cc1 | 0.0 |
| Cc1cc(C)n(CCCCCSc2nc(-c3ccccc3)c(-c3ccccc3)[nH]2)n1 | 0.0 |
| C[C@@H]1Cc2c([nH]c3ccccc23)[C@@H](c2c(F)cc(/C=C/C(=O)O)cc2F)N1CC(C)(C)F | 0.0 |
| CCOc1nc2cccc(C(=O)O)c2n1Cc1ccc(-c2ccccc2-c2nn[nH]n2)cc1 | 0.0 |
| CC(C)(C)c1ccc(S(=O)(=O)N=C2C=C(SCC(=O)O)C(=O)c3ccccc32)cc1 | 0.0 |
| Cc1cc2ncnn2cc1Nc1ncc2c(n1)n(C1CCOCC1)c(=O)n2C | 0.0 |
| N#Cc1ncccn1 | 0.0 |
| COc1cccc(-c2cc(=O)c3ccccc3o2)c1N | 0.0 |
| O=S(=O)(O)c1cc(O)c2c(S(=O)(=O)O)cc(S(=O)(=O)O)cc2c1 | 0.0 |
| O=C(O)CSc1ncnc2c(C3CC3)c(Cl)sc12 | 0.0 |
| CN(C)[C@@H]1C(=O)C(C(N)=O)=C(O)[C@@]2(O)C(=O)C3=C(O)c4c(O)cccc4[C@@](C)(O)[C@H]3[C@H](O)[C@@H]12 | 0.0 |
| Cc1nc(-c2ccccn2)nc(NCCNc2cccc(C(F)(F)F)n2)c1Cl | 0.0 |
| CCS(=O)(=O)c1ccc(CC(=O)Nc2cc(Cl)c(-c3ccccc3OC(F)(F)F)c(Cl)c2)cc1 | 0.0 |
| CN(c1ccc(NC(=O)Nc2ccc(OC(F)(F)F)cc2)cc1)c1ccnc(Nc2cccc(S(N)(=O)=O)c2)n1 | 0.0 |
| COc1ccc(N2C(=O)/C(=C\c3ccc([N+](=O)[O-])s3)SC2=S)cc1 | 0.0 |
| c1ccc2c(CCNc3ccc(Nc4ccncc4)cc3)c[nH]c2c1 | 0.0 |
| Nc1ncnc2n[nH]nc12 | 0.0 |
| N#Cc1cccnc1N1CCN(C(=O)c2cccc(Cc3n[nH]c(=O)c4ccccc34)c2)CC1 | 0.0 |
| C=CCN1CCc2nc(N)sc2CC1.Cl.Cl | 0.0 |
| COc1cc(/C=N/O)nc(-c2ccccn2)c1 | 0.0 |
| CCC(=O)OCC(=O)[C@@]1(OC(=O)CC)[C@@H](C)C[C@H]2[C@@H]3CCC4=CC(=O)C=C[C@]4(C)[C@@]3(Cl)[C@@H](O)C[C@@]21C | 0.0 |
| O=C(O)c1cccc(Nc2ccc(C(F)(F)F)cc2)c1 | 0.0 |
| COc1ccc([C@@H](O)c2cc(-c3ncnc4cc(N5CCOCC5)ccc34)c(F)cc2Cl)nn1 | 0.0 |
| CCOC(=O)[C@@H](Cc1cn(C)c2ccccc12)NC(=O)[C@@H](N)CC(C)C.Cl | 0.0 |
| CC[C@@](O)(C(=O)O)c1cc2n(c(=O)c1CO)Cc1cc3ccccc3nc1-2.[Na+] | 0.0 |
| COc1ccc2cc([C@H](C)C(=O)O)ccc2c1 | 0.0 |
| C/C(O)=C(\C#N)C(=O)Nc1ccc(-c2ccccc2Cl)cc1 | 0.0 |
| CCCCCOc1ccc(-c2cc(-c3ccc(C(=O)N[C@H]4C[C@@H](O)[C@@H](O)NC(=O)[C@@H]5[C@@H](O)[C@@H](C)CN5C(=O)[C@H]([C@H](O)CC(N)=O)NC(=O)[C@H]([C@H](O)[C@@H](O)c5ccc(O)c(OS(=O)(=O)[O-])c5)NC(=O)[C@@H]5C[C@@H](O)CN5C(=O)[C@H]([C@@H](C)O)NC4=O)cc3)no2)cc1.[Na+] | 0.0 |
| CNCCCN1c2ccccc2CCc2ccccc21.Cl | 0.0 |
| CC[C@@H]1/C=C(\C)C[C@H](C)C[C@H](OC)[C@H]2O[C@@](O)(C(=O)C(=O)N3CCCC[C@H]3C(=O)O[C@H](/C(C)=C/[C@@H]3CC[C@@H](O)[C@H](OC)C3)[C@H](C)[C@@H](O)CC1=O)[C@H](C)C[C@@H]2OC | 0.0 |
| CC(C)[C@@H]1NC(=O)[C@H](C)OC(=O)[C@@H](C(C)C)NC(=O)[C@@H](C(C)C)OC(=O)[C@H](C(C)C)NC(=O)[C@H](C)OC(=O)[C@@H](C(C)C)NC(=O)[C@@H](C(C)C)OC(=O)[C@H](C(C)C)NC(=O)[C@H](C)OC(=O)[C@@H](C(C)C)NC(=O)[C@@H](C(C)C)OC1=O | 0.0 |
| CC(C)ON(CC(=O)NO)S(=O)(=O)c1ccc(-c2ccccc2)cc1 | 0.0 |
| CNc1nc(Nc2ccc(C(=O)N3CCOCC3)cc2OC)nc2[nH]cc(Cl)c12 | 0.0 |
| Clc1ccc(CO/N=C(\Cn2ccnc2)c2ccc(Cl)cc2Cl)c(Cl)c1.O=[N+]([O-])O | 0.0 |
| Cc1nc(N2CCN(C)CC2)c2oc3ccc(Cl)cc3c2n1 | 0.0 |
| CC(C)c1ccc(C=O)cc1 | 0.0 |
| CCCCc1nc(Cl)c(CO)n1Cc1ccc(-c2ccccc2-c2nn[nH]n2)cc1 | 0.0 |
| CCC[C@@H]([C@@H](CC(C)C)C(=O)N[C@@H](CCCCNC(=O)OCc1ccccc1)C(=O)Nc1nccs1)N(O)C=O | 0.0 |
| [O-][n+]1cccc(-c2nc3c(Cl)cccc3cc2C(Nc2ncnc3cccnc23)C(F)(F)F)c1 | 0.0 |
| Cl.Cl.NC/C=C(\F)CS(=O)(=O)c1cccc2cccnc12 | 0.0 |
| CCN(C/C=C/C#CC(C)(C)C)Cc1cccc(OCC(C)(C)OCc2ccsc2)c1 | 0.0 |
| C=C1CC[C@H](O)C/C1=C/C=C1\CCC[C@]2(C)[C@@H]([C@H](C)/C=C/[C@H](C)C(C)C)CC[C@@H]12 | 0.0 |
| O=S(=O)(c1ccc2c(c1)OCCO2)N1CCN(c2nc(-c3cccnc3)nc3ccccc23)CC1 | 0.0 |
| CN(CCCOc1ccc(Cc2ccccc2)cc1)CCC(=O)O.Cl | 0.0 |
| Cl.NOCC(=O)O.NOCC(=O)O | 0.0 |
| Cl.NCCCCCCNS(=O)(=O)c1cccc2ccccc12 | 0.0 |
| CCN(CC)C(=O)[C@@]1(c2ccccc2)C[C@H]1CN.Cl | 0.0 |
| CC1(C)N=C(C2CCCCC2)c2ccc(C#N)cc2N(c2ccc(NCCNC3CCOCC3)cc2)C1=O | 0.0 |
| C=CC(=O)Nc1cccc(Oc2nc(Nc3ccc(N4CCN(C)CC4)cc3)nc3ccsc23)c1 | 0.0 |
| Cc1c(C(=O)Nc2ccc(Oc3ccnc4[nH]cc(-c5ccccc5)c34)c(F)c2)c(=O)n(-c2ccc(F)cc2)n1C | 0.0 |
| CCCOc1ccc(Br)cc1-c1cc(-c2ccc(Cl)cc2)[nH]c1-c1ccncc1 | 0.0 |
| C=C(C)C(=O)Nc1ccc(-c2c(-c3ccc(Oc4nccc(C)n4)c(F)c3)c3c(N)ncnc3n2C)cc1 | 0.0 |
| COc1ccc2cc(OCC3(C(=O)O)CN(C(=O)c4ccc(F)cc4)C3)ccc2c1 | 0.0 |
| CC(=O)/C(C)=N/O | 0.0 |
| C=CC(=O)N1CCC[C@@H](n2c(=O)n(-c3ccc(Oc4ccccc4)cc3)c3c(N)nccc32)C1 | 0.0 |
| Cl.Clc1ccc(N2CCN(Cc3c[nH]c4ncccc34)CC2)cc1 | 0.0 |
| CN(C)c1ncnc2c1ncn2[C@@H]1O[C@H](CO)[C@@H](N)[C@H]1O | 0.0 |
| CC(C)c1ccc(CC(=O)N[C@H](C)c2ccc(OCC(F)(F)F)cn2)cc1 | 0.0 |
| COCCC(=O)N1C[C@@H]2C[C@H](C1)c1ccc(NC(=O)c3ccc(-c4ccccc4)cc3)c(=O)n1C2 | 0.0 |
| CCCC(CCC)C(=O)O | 0.0 |
| COc1ccc(S(=O)(=O)N=C2C=CC=CC2=CC=C2C=CN(O)C=C2)cc1 | 0.0 |
| C/C=C/C=C/C(=O)O | 0.0 |
| O=C(NCc1cccnc1)c1cc(-n2cnn(Cc3ccc(F)cc3)c2=O)n[nH]1 | 0.0 |
| COc1cc2nccc(Oc3ccc(NC(=O)Nc4cc(C)on4)c(Cl)c3)c2cc1OC | 0.0 |
| Cc1cc(Nc2nn(-c3ccccc3)c(=O)c3ccccc23)n[nH]1 | 0.0 |
| C[C@@H]1CN(CC(=O)Nc2ccc3c(c2)Cc2cccc(-c4cc(=O)cc(N5CCOCC5)o4)c2S3)C[C@H](C)O1 | 0.0 |

For reference, 9 entries again:

smiles	inhibition [%]
CN(C)c1ncnc2c1ncn2[C@@H]1O[C@H](CO)[C@@H](N)[C@H]1O	0.0
Cl.Clc1ccc(N2CCN(Cc3c[nH]c4ncccc34)CC2)cc1	0.0
C/C(O)=C(\C#N)C(=O)Nc1ccc(-c2ccccc2Cl)cc1	0.0
c1ccc2c(CCNc3ccc(Nc4ccncc4)cc3)c[nH]c2c1	0.0
Clc1ccc(CO/N=C(\Cn2ccnc2)c2ccc(Cl)cc2Cl)c(Cl)c1.O=[N+]([O-])O	0.0
C[C@@H]1Cc2c([nH]c3ccccc23)[C@@H](c2c(F)cc(/C=C/C(=O)O)cc2F)N1CC(C)(C)F	0.0
CCN(C/C=C/C#CC(C)(C)C)Cc1cccc(OCC(C)(C)OCc2ccsc2)c1	0.0
C=CC(=O)Nc1cccc(Oc2nc(Nc3ccc(N4CCN(C)CC4)cc3)nc3ccsc23)c1	0.0
CC(C)c1ccc(C=O)cc1	0.0